Earlier results, collected in US9422521B2, “Differentiation of pluripotent stem cells with a kinase inhibitor or PGI2” (ES Cell International Pte Ltd., priority 2005, dated 2016).

Tested on: mouse ES cells
Conditions: cited from earlier work

## O=[N+]([O-])c1ccc(-c2nc(-c3ccncc3)c(-c3ccc(F)cc3)[nH]2)cc1 [PD169316]
  cardiomyogenesis in mouse ES cells: prevented cardiomyogenesis
  neurogenesis in mouse ES cells: induced neurogenesis
